# Molecular target: purified PLD1 (isoform not distinguished in Example 4) (human)
# Assay: cell-based or functional assay
substance,measurement,value
human Rac1 with … at the amino terminus (from UniProt P63000 1-189),activation of PLD1 at a maximally effective concentration (Rac1 5.3 M as printed),13 fold
same,half-maximal activation of PLD1 activity (headgroup release assay),1 M
same,stimulation of PLD1 activity,13 fold

# — patent US20030124108A1
